Test results reported in ChEMBL document CHEMBL1145137, “Design, synthesis, and crystal structure of selective 2-pyridone tissue factor VIIa inhibitors” (J Med Chem, 2003).

Sequences of proteins named here, by UniProt entry; tags and fusion partners are left off. Residues count along the entry.
UniProt P00742, 41-179 limits assumed: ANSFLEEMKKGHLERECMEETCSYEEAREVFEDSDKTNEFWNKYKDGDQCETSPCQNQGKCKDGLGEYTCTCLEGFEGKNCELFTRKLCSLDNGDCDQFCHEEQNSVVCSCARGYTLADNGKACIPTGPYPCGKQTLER
UniProt P00742, 235-488 limits assumed: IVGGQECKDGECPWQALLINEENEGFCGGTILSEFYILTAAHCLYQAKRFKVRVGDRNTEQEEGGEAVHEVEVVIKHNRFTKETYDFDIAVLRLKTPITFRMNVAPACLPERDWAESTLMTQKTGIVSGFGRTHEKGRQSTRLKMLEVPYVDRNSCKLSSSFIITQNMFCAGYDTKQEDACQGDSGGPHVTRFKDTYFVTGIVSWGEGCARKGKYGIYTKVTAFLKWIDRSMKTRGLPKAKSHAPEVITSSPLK

Biological target: Coagulation factor X (Homo sapiens, UniProt P00742)
Assay: Inhibitory concentration against human Coagulation factor X

IC50: > 30 µM
SMILES: CC(C)Nc1ccc(-c2cc(N)cc(N)c2)n(CC(=O)NCc2ccc(C(=N)N)cc2)c1=O
